Where two headings read alike, the source gives them in different places.

The subject of experiment [1] is COVID-19 Delta virus. Kind of experiment: Lung histopathology of mice infected with COVID-19 Delta virus (treatment). Particulars: number of mice with lesion grade, COVID-19 Delta virus infected mice.
In experiment [2] the test system is influenza virus. Particulars: mouse, in vivo.

For `COc1cc(O)cc(C2OCC3C(c4ccc(OC5OC(CO)C(O)C(O)C5O)c(OC)c4)OCC23)c1` [Serial No. 1, (7,8,7′,8′)-7,7′-bisepoxy-5′-hydroxy-3,3′hydroxy-bismethoxylignan, 4-O-β-D-glucoside], in experiment [1] (High dose (80 mg/kg)), the “Interstitial pneumonia, Mild” value is reported as 4; the “Interstitial pneumonia, Moderate” value is 0; the “Interstitial pneumonia, Severe” value is 0; the “Pulmonary hemorrhage, Mild” value came to 3. Besides, in experiment [1] (High dose (80 mg/kg)), the “Pulmonary hemorrhage, Moderate” value is on record as 1 and the “Pulmonary hemorrhage, Severe” value came out at 0. Also, in experiment [1] (Low dose (40 mg/kg)), the “Pulmonary hemorrhage, Mild” value was 2 and the “Pulmonary hemorrhage, Moderate” value amounted to 2.
`COc1ccc([C@H]2OC[C@H]3[C@@H]2CO[C@H]3c2ccc(O[C@@H]3O[C@H](CO)[C@@H](O)[C@H](O)[C@H]3O)c(OC)c2)cc1OC` [Serial No. 2, phillyrin]: in experiment [1] (High dose (80 mg/kg)), the “Interstitial pneumonia, Mild” value turned out to be 3; the “Interstitial pneumonia, Moderate” value is recorded as 1; the “Interstitial pneumonia, Severe” value is 0; the “Pulmonary hemorrhage, Mild” value is 3. In addition, in experiment [1] (High dose (80 mg/kg)), the “Pulmonary hemorrhage, Moderate” value stood at 1 and the “Pulmonary hemorrhage, Severe” value is 0. Besides, in experiment [1] (Low dose (40 mg/kg)), the “Interstitial pneumonia, Mild” value was 2; the “Interstitial pneumonia, Moderate” value stood at 2; the “Interstitial pneumonia, Severe” value was 0; the “Pulmonary hemorrhage, Mild” value is 2. Moreover, in experiment [1] (Low dose (40 mg/kg)), the “Pulmonary hemorrhage, Moderate” value came out at 2 and the “Pulmonary hemorrhage, Severe” value came out at 0. For the same molecule, in experiment [2] (3.25 mg/kg), the “Lung index (X ± S)” value was found to be 1.192 ± 0.543 and the “Lung index inhibition rate (%)” value is given as 20.74%. In experiment [2] (13 mg/kg), the “Lung index (X ± S)” value is on record as 1.175 ± 0.259 and the “Lung index inhibition rate (%)” value turned out to be 21.88%.
As for `COc1cc([C@H]2OC[C@H]3[C@@H]2CO[C@H]3c2ccc(OC)c(OC)c2)ccc1O` [Serial No. 3, phillygenin], in experiment [1] (High dose (80 mg/kg)), the “Interstitial pneumonia, Mild” value came out at 4; the “Interstitial pneumonia, Moderate” value worked out at 0; the “Interstitial pneumonia, Severe” value came to 0; the “Pulmonary hemorrhage, Mild” value came to 4. For the same molecule, in experiment [1] (High dose (80 mg/kg)), the “Pulmonary hemorrhage, Moderate” value amounted to 0 and the “Pulmonary hemorrhage, Severe” value was 0. Moreover, in experiment [1] (Low dose (40 mg/kg)), the “Interstitial pneumonia, Mild” value stood at 2; the “Interstitial pneumonia, Moderate” value was found to be 2; the “Interstitial pneumonia, Severe” value came out at 0; the “Pulmonary hemorrhage, Mild” value is on record as 2. In addition, in experiment [1] (Low dose (40 mg/kg)), the “Pulmonary hemorrhage, Moderate” value stood at 2 and the “Pulmonary hemorrhage, Severe” value amounted to 0. Further, in experiment [2] (3.25 mg/kg), the “Lung index (X ± S)” value is given as 1.196 ± 0.084 and the “Lung index inhibition rate (%)” value is on record as 20.48%. In experiment [2] (13 mg/kg), the “Lung index (X ± S)” value was 1.177 ± 0.792 and the “Lung index inhibition rate (%)” value was determined as 21.74%.

Source of the values: patent US20250049831A1, “ANTIVIRAL USE OF BISE[…], AND BISEPOXYLIGNAN COMPOSITION AND PREPARATION OF BISE[…]” (priority 2021, published 2025).
